# From publication PMC4533228
# Target: 26S proteasome purified from rabbit muscle (rabbit)
# Test: pull-down; competition: binding of 26S to resin-bound polyUb-E6AP at 4°C in the presence of increasing concentrations (up to 300 nM) of K48- or K11-Ub4; binding without Ub tetramers taken as 100%; bound 26S by LLVY-AMC cleavage; constant called approximate
substance,measurement,value
K48-linked tetraubiquitin (K48-Ub4) (from UniProt P0CG48 1-76),percent decrease of polyUb-E6AP binding to proteasomes at 300 nM,60%
